Data as given in PubChem BioAssay AID1347080 (ICCB-Longwood Screening Facility, Harvard Medical School, 2019).
This is a selection; strong and weak results do not stand in their true shares. Active and inactive are the calls of the source.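 The calls were made as follows: active = compounds whose cell count with miR-34 switched on is under 0.7 times the count with it off; inactive = the rest.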

Assay: sensitizers of A549 cells to miR-34 induction, primary screen, imaging, A549 dox-inducible miR-34, nuclei and caspase counts (AID 1347080); also: test concentration not given here
Conditions: A549 miR-34 inducible, Hoechst nuclei count, 48 h; stronger effect = lower value; cell number ratio, induced over uninduced

| Compound | fold change |
| --- | --- |
| CC1=C2[N-][C@@H](C(CC(N)=O)[C@@]2(C)CCC(=O)NCC(C)OP(=O)([O-])OC2C(CO)OC(n3cnc4cc(C)c(C)cc43)C2O)[C@]2(C)N=C(C(C)=C3N=C(C=C4N=C1C(CCC(N)=O)C4(C)C)C(CCC(N)=O)[C@]3(C)CC(N)=O)C(CCC(N)=O)[C@]2(C)CC(N)=O.[C-]#N.[Co+3] (stereo partly drawn) | inactive: 0.879 |
| C/C1=C2N=C(/C=C3N=C(/C(C)=C4\[N-][C@@](C)([C@@H]5N=C1[C@](C)(CCC(=O)NC[C@@H](C)OP(=O)([O-])O[C@H]1[C@@H](O)[C@@H](n6cnc7cc(C)c(C)cc76)O[C@@H]1CO)[C@H]5CC(N)=O)[C@@](C)(CC(N)=O)[C@@H]4CCC(N)=O)[C@@](C)(CC(N)=O)[C@@H]\3CCC(N)=O)C(C)(C)[C@@H]/2CCC(N)=O.[C-]#N.[Co+3] | inactive: 0.834 |
| CN(C)CCS | inactive: 0.914 |
